These results are taken from ChEMBL document CHEMBL3639368, “Substituted benzimidazole-type piperidine compounds and uses thereof” (2015).

Experiment [1] addresses Delta-type opioid receptor (Homo sapiens, UniProt P41143). Kind of experiment: Radioligand Binding Assay: Radioligand dose-displacement assays used 0.2 nM [3H]-Naltrindole (NEN; 33.0 Ci/mmole) with 10-20 μg membrane protein (recombinant delta opioid receptor expressed in CHO-K1 cells; Perkin Elmer) in a final volume of 500 μL binding buffer (5 mM MgCl2, 5% DMSO, 50 mM Trizma base, pH 7.4). Non-specific binding was determined in the presence of 25 μM unlabeled naloxone. All r.

In the next experiment the target is Mu-type opioid receptor (Homo sapiens, UniProt P35372). In words: Radioligand Binding Assay: Radioligand binding assays were conducted using freshly thawed membranes expressing human mu-receptors (Perkin Elmer, Shelton, Conn.). Radioligand dose-displacement binding assays for human mu-opioid receptors used 0.2 nM[3H]-diprenorphine (NEN, Boston, Mass.), with 5-20 mg membrane protein/well in a final volume of 500 uL binding buffer (10 mM MgCl2, 1 mM EDTA, 5% DMSO,.

For experiment [2], the target named is Kappa-type opioid receptor (Homo sapiens, UniProt P41145). In words: Radioligand Binding Assay: Radioligand dose displacement assays used 0.4-0.8 nM [3H]-U69,593 (NEN; 40 Ci/mmole) with 10-20 μg membrane protein (recombinant kappa opioid receptor expressed in HEK 293 cells; in-house prep) in a final volume of 200 μL binding buffer (5% DMSO, 50 mM Trizma base, pH 7.4). Non-specific binding was determined in the presence of 10 μM unlabeled naloxone or U69,593. All re. The conditions noted are these: sf9.

As for `O=C(O)CN1CCC[C@@H]1c1nc2ccccc2n1[C@H]1C[C@H]2CCC[C@@H](C1)N2[C@@H]1C[C@@H]2CCCC[C@@H](C2)C1`, the Ki was determined as 5270 nM in experiment [1] and 1110 nM on Mu-type opioid receptor. For `c1ccc2c(c1)nc(-c1cnc[nH]1)n2[C@H]1C[C@H]2CCC[C@@H](C1)N2[C@@H]1C[C@@H]2CCC[C@@H](C2)C1`, the Ki in experiment [2] was determined as 89.6 nM; at Mu-type opioid receptor, 520 nM.

`Cn1cc(Cl)c(-c2nc3ccccc3n2[C@H]2C[C@H]3CCC[C@@H](C2)N3[C@@H]2C[C@@H]3CCC[C@@H](C3)C2)n1`: the Ki in experiment [2] worked out at 79 nM; in experiment [1] it was 4170 nM; on Mu-type opioid receptor it was 952 nM. In the case of `c1ccc2c(c1)nc(C[C@H]1COCCN1)n2[C@H]1C[C@H]2CCC[C@@H](C1)N2[C@@H]1C[C@@H]2CCCC[C@@H](C2)C1`, the inhibition constant Ki in experiment [2] worked out at 31.3 nM; on Mu-type opioid receptor, 1910 nM. On to `O=C(O)CNc1nc2ccccc2n1C1C[C@H]2CCC[C@@H](C1)N2C1CCCCCCCCC1` (some centres not stated), for which the Ki in experiment [2] was 265 nM; in experiment [1], 13600 nM. Take `NC(=O)/N=c1\[nH]c2ccccc2n1C1CCN(C2CCCCCCC2)CC1`: the Ki in experiment [2] worked out at 33.7 nM; in experiment [1] it was 10300 nM; at Mu-type opioid receptor, 339 nM.

In the case of `O=C(O)CN1CCC[C@H]1c1nc2ccccc2n1[C@H]1C[C@H]2CCC[C@@H](C1)N2[C@@H]1C[C@@H]2CCCC[C@@H](C2)C1`, the Ki in experiment [2] is 150 nM; in experiment [1], 16200 nM; at Mu-type opioid receptor, 3560 nM. `CS(=O)(=O)NCCN1CCC[C@H]1Cc1nc2ccccc2n1[C@H]1C[C@H]2CCC[C@@H](C1)N2[C@@H]1C[C@@H]2CCCC[C@@H](C2)C1`: the results for the Ki (in experiment [2]; at Mu-type opioid receptor) were 43.7 nM and 1840 nM, respectively. On the same counts, the results for `O=C(O)CCN1CC[C@@H](Cc2nc3ccccc3n2[C@H]2C[C@H]3CCC[C@@H](C2)N3[C@@H]2C[C@@H]3CCCC[C@@H](C3)C2)C1` are 614 nM and 4500 nM. The corresponding values for `O=C(O)CCN1CCC[C@@H]1c1nc2ccccc2n1[C@H]1C[C@H]2CCC[C@@H](C1)N2[C@@H]1C[C@@H]2CCCC[C@@H](C2)C1` are 828 nM and 5540 nM.

For the compound `O=C(O)CCN1CCC[C@H]1Cc1nc2ccccc2n1[C@H]1C[C@H]2CCC[C@@H](C1)N2[C@@H]1C[C@@H]2CCCC[C@@H](C2)C1`, the Ki in experiment [2] was 444 nM. Take `c1ccc2c(c1)nc(C[C@@H]1COCCN1)n2[C@H]1C[C@H]2CCC[C@@H](C1)N2[C@@H]1C[C@@H]2CCCC[C@@H](C2)C1`: the Ki in experiment [2] is 50.1 nM; on Mu-type opioid receptor, 1670 nM. In the case of `CCOC(=N)/N=c1\[nH]c2ccccc2n1C1CCN(C2CCCCCCC2)CC1`, the Ki in experiment [2] was determined as 59 nM; in experiment [1] it was 1620 nM; at Mu-type opioid receptor, 511 nM. In the case of `Cc1nnc(Cc2nc3ccccc3n2[C@H]2C[C@H]3CCC[C@@H](C2)N3[C@@H]2C[C@@H]3CCCC[C@@H](C3)C2)[nH]1`, in experiment [2], the Ki came to 130 nM. As to `NC(=O)CN1CCC[C@H]1c1nc2ccccc2n1[C@H]1C[C@H]2CCC[C@@H](C1)N2[C@@H]1C[C@@H]2CCCC[C@@H](C2)C1`, the Ki in experiment [2] turned out to be 123 nM.

The compound `CS(=O)(=O)NCCN1CC[C@@H](Cc2nc3ccccc3n2[C@H]2C[C@H]3CCC[C@@H](C2)N3[C@@H]2C[C@@H]3CCCC[C@@H](C3)C2)C1` showed a Ki at Mu-type opioid receptor of 1880 nM. Regarding `O=C(O)CN1CCCC[C@H]1c1nc2ccccc2n1[C@H]1C[C@H]2CCC[C@@H](C1)N2[C@@H]1C[C@@H]2CCCC[C@@H](C2)C1`, the values for the Ki (in experiment [2]; on Mu-type opioid receptor) were 108 nM and 4640 nM, respectively. As for `O=C(O)CO/N=C/c1nc2ccccc2n1[C@H]1C[C@H]2CCC[C@@H](C1)N2[C@H]1C[C@@H]2CCC[C@@H](C2)C1`, the Ki at Mu-type opioid receptor is 1500 nM. On Mu-type opioid receptor, `O=C(O)CN1CCC[C@H]1Cc1nc2ccccc2n1[C@H]1C[C@H]2CCC[C@@H](C1)N2[C@@H]1C[C@@H]2CCCC[C@@H](C2)C1` gave a Ki of 2850 nM. Turning to `CCN(CC)C(=O)CN1CC[C@@H](Cc2nc3ccccc3n2[C@H]2C[C@H]3CCC[C@@H](C2)N3[C@@H]2C[C@@H]3CCCC[C@@H](C3)C2)C1`, the Ki stood at 30.4 nM in experiment [2] and 3010 nM at Mu-type opioid receptor. For the compound `c1ccc2c(c1)nc(Cc1cnccn1)n2[C@H]1C[C@H]2CCC[C@@H](C1)N2[C@@H]1C[C@@H]2CCCC[C@@H](C2)C1`, the Ki in experiment [2] turned out to be 115 nM.

For the compound `CONC(=N)/N=c1\[nH]c2ccccc2n1C1CCN(C2CCCCCCC2)CC1`, the results for the Ki (in experiment [1]; on Mu-type opioid receptor) were 5650 nM and 2470 nM, respectively. As to `c1ccc2c(c1)nc(-c1cc[nH]n1)n2[C@H]1C[C@H]2CCC[C@@H](C1)N2[C@@H]1C[C@@H]2CCC[C@@H](C2)C1`, the Ki in experiment [2] was 51 nM; in experiment [1], 6160 nM; on Mu-type opioid receptor, 529 nM.

As to `O=C(O)CN1CCC/C(=C2\N(CC(=O)O)c3ccccc3N2[C@H]2C[C@H]3CCC[C@@H](C2)N3[C@@H]2C[C@@H]3CCCC[C@@H](C3)C2)C1`, the Ki in experiment [2] turned out to be 41.3 nM.

As for `OCc1nc2ccccc2n1C1C[C@H]2CCC[C@@H](C1)N2[C@H]1C[C@@H]2CCC[C@@H](C2)C1` (some centres not stated), the Ki in experiment [2] was 246 nM; at Mu-type opioid receptor, 1580 nM. As to `O=C(O)CN1CCC[C@H](c2nc3ccccc3n2[C@H]2C[C@H]3CCC[C@@H](C2)N3[C@H]2C[C@@H]3CCC[C@@H](C3)C2)C1`, the Ki in experiment [2] worked out at 353 nM. Consider `O=C(O)CN1CCN(Cc2nc3ccccc3n2[C@H]2C[C@H]3CCC[C@@H](C2)N3[C@H]2C[C@@H]3CCC[C@@H](C3)C2)CC1`, for which the Ki worked out at 6800 nM in experiment [2] and 10900 nM in experiment [1].

As for `O=C(O)CN1CCCC[C@@H]1c1nc2ccccc2n1[C@H]1C[C@H]2CCC[C@@H](C1)N2[C@@H]1C[C@@H]2CCCC[C@@H](C2)C1`, the Ki is 16.3 nM in experiment [2] and 11300 nM at Mu-type opioid receptor. Consider `O=C(O)CCN1CCC(Cc2nc3ccccc3n2[C@H]2C[C@H]3CCC[C@@H](C2)N3[C@@H]2C[C@@H]3CCCC[C@@H](C3)C2)CC1`, for which the Ki in experiment [2] came out at 822 nM. Regarding `O=C(O)CN1CCCC[C@H]1Cc1nc2ccccc2n1[C@H]1C[C@H]2CCC[C@@H](C1)N2[C@@H]1C[C@@H]2CCCC[C@@H](C2)C1`, the Ki in experiment [2] is 169 nM; on Mu-type opioid receptor, 3000 nM. Consider `O=C(O)CN1CCC[C@H](c2nc3ccccc3n2[C@H]2C[C@H]3CCC[C@@H](C2)N3[C@@H]2C[C@@H]3CCCC[C@@H](C3)C2)C1`, for which the Ki in experiment [2] came to 700 nM; at Mu-type opioid receptor, 7450 nM.

What is called Ki is the equilibrium dissociation constant of an inhibitor or competing ligand from its target.
